Data reported in the supplement of paper PMC8498969.

Test system: HEK293
Test: IC50 for inhibition of ZIKV NS1 production
Details: not given
Protocol: (§1)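 HEK293 cells in 1536-well plates were pre-treated with compound for 1 h, infected with ZIKV (MOI 1) for 24 h, and NS1 antigen (intra- plus extracellular) was measured by TR-FRET. Confirmation used 11-point 1:3 dilutions, and IC50 and maximal inhibition were fitted in GraphPad Prism.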

Row | SMILES | IC50
1 | CC(=O)[O][Hg][c]1ccccc1 | 4.6 µM
2 | CNCCCC12CCC(c3ccccc31)c1ccccc12 | 18 µM
3 | Cn1cc(-c2cnn3c(N)c(Br)c([C@@H]4CCCNC4)nc23)cn1 | 1.2 µM
4 | N[C@@H](Cc1ccc(N(CCCl)CCCl)cc1)C(=O)O | 10 µM

Test system: HEK293
Test: cytotoxicity IC50 (ATP content, uninfected cells); higher = less cytotoxic
Details: infection: none

Row | SMILES | cytotoxicity IC50
5 | CC(=O)[O][Hg][c]1ccccc1 | 3 µM
6 | CNCCCC12CCC(c3ccccc31)c1ccccc12 | 70 µM
7 | Cn1cc(-c2cnn3c(N)c(Br)c([C@@H]4CCCNC4)nc23)cn1 | > 100 µM
8 | CN[C@H]1CCc2cc(OC)c(OC)c(OC)c2-c2ccc(OC)c(=O)cc21 | > 100 µM
9 | N[C@@H](Cc1ccc(N(CCCl)CCCl)cc1)C(=O)O | 80 µM

Test system: HEK293
Test: maximal inhibition of ZIKV NS1 production (% inhibition); higher = stronger antiviral effect
Details: not given
Protocol: as §1

Row | SMILES | maximal inhibition
10 | CC(=O)[O][Hg][c]1ccccc1 | 109
11 | CNCCCC12CCC(c3ccccc31)c1ccccc12 | 89
12 | Cn1cc(-c2cnn3c(N)c(Br)c([C@@H]4CCCNC4)nc23)cn1 | 89
13 | CN[C@H]1CCc2cc(OC)c(OC)c(OC)c2-c2ccc(OC)c(=O)cc21 | 57
14 | N[C@@H](Cc1ccc(N(CCCl)CCCl)cc1)C(=O)O | 101
